Structures are written as SMILES. Values joined by “and” are separate entries in the source; they are usually repeats but may differ in a detail not shown here. Identical values can stand only once.

Amino acid sequences for entries named in this document (tags omitted). Residues count along the entry.
UniProt P02768, 25-609: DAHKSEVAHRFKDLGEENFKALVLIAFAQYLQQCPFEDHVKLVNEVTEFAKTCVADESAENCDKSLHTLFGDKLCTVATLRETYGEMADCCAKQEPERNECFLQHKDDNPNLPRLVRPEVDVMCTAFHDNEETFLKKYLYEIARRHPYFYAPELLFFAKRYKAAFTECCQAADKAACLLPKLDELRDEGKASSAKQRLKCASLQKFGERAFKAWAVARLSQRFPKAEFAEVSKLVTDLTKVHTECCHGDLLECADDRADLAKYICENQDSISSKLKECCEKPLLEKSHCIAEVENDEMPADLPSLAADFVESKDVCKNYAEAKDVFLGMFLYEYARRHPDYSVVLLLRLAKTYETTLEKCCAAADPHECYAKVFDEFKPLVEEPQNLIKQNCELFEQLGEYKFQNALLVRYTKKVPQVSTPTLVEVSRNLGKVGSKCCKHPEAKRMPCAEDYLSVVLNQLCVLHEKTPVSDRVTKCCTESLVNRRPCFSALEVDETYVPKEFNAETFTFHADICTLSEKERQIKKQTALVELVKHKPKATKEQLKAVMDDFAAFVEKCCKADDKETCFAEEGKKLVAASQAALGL

The conditions of data set [1]: modelling table; cited from earlier work.
For data set [2], the target named is human serum albumin (HSA) (Homo sapiens, UniProt P02768). Briefly: Fluorescence emission spectrum (quenching) of HSA with carbamate pesticides. The data set is classed as binding. The settings on record: modelling table. As for the experimental part: the mixed solution to be tested was preheated at […] for 3 minutes, and the emission spectrum of HSA with carbamate pesticides was measured at 300-500 nm . The excitation wavelength was set at 280 nm , and the slit width for both excitation and emission was 15 nm; the HSA concentration was kept constant at 5×10^−7 M, and the pesticide concentration was (0-105)×10^−7 M.
The internal filtering effect of fluorescence signal was corrected according to the following formula: Fcor=Fobsexp[(Aex+Aem)/2] (1);
in this formula, Fcor and Fobs represent corrected fluorescence signal and observed fluorescence signal, respectively, and Aex and Aem represent absorbance of the mixed solution to be tested at excitation wavelength and emission wavelengths, respectively; the quenching constant, number of binding sites, binding constant, free energy and binding distance of different drugs were obtained by fluorescence emission spectra, and a BP neural network model was obtained. Specifically, they were obtained as follows:
There is a linear relationship between F0/F and [Q] to distinguish whether it is static quenching or dynamic quenching. The fluorescence quenching data are analyzed by Stern-Volmer equation to clarify the quenching mechanism: F0/F=1+KSV[Q]=1+Kqτ0[Q] (2);
in the formula, F0 and F are fluorescence signals […] quencher, respectively. […]

In the case of `CNC(=O)O/N=C(\CS(C)(=O)=O)C(C)(C)C` [Thiofanox-sulfone, thiofanox sulfone], the median lethal dose (LD50) in data set [1] was 1.9 mg/kg and 3.8 mg/kg. The Binding distance/r in data set [2] was 2.907 and 1.702.

Usually LD50 stands for the dose at which mortality reaches 50%.

The values are drawn from US12385839B2, “Use of protein in predicting drug properties” (priority 2021, dated 2025).
